From patent US20160138073
Numbering of substitutions follows the chain as printed. Names and notes keep the numbering of the source.

Target: T1, α-glycated hexapeptide Fru-Val-His-Leu-Thr-Pro-Glu
T1 chain: VHLTPE

B1: FPOX derived from Aspergillus oryzae RIB40 (AoFPOX), tagged with four histidine residues at the N-terminal (protein)
chain: HHHHMTVTKSSSILIIGAGTWGASTALHLGRRGYTNVTVLDPYTVPSAISAGNDVNKIISSGQYSNKKDEIEVNEILAEEAFKGWTTDPLFKPYYHDTGVVMSACSSAGLDRLGIRVRPEEEPDVSEVTKPEHFRQLAPAVLKGNFPGWRGYHIRSNAGWAHARNALVAAIREAEKLGVKFVTGTQGRVITLIFENNDVKGAVTADGKIWRAEQTVLCAGANAAQFLDFKDQLRPTAWTLAHIRLKPEERALYKNLPVIFNIEKGFFFEPDEERGEIKICDEHPGYTNMVKSADGHLTSLPFEKTQIPKESEARVRALLSETMPQLADRPFSFARVCWCADTANREFIIDRHPEHPSLVLGCGASGRGFKYLPSIGNLIVDAIEDKVPEKVHKLTRWSPDIAVDRKWRDTLGRFGGPNRVMDFHDVKEWTNVQNKDTAKL
Specific activity (mU/mg): 0.12 mU/mg

B2: FPOX-15 mutant, position 61 Pro (protein)
chain: MAPRANTKIIVVGGGGTMGSSTALHLLRAGYTPSNITVLDTYPIPSAQSAGYDLNKIFGIPLRNKPDLQLYLEALDMWKNDPLFKPFFHNVGQMDVSSTEEGIKKLRMRYQSLLDAGIGLEKTNFLLESEDEILAKAPHFTREQIKGWKGLFCGDGGWLAAAKAINAIGQFLKEQGVKFGFGEAGTFKKPLFADADEKTCIGVETVDGTKYYADKVVLAAGAWSSTLVDLEEQCVSKAWVFAHIQLTPAEAAAYKNTPVIYDGDYGFFIEPDENGIIKVCDEFPGFTHFKMHQPYGSPVPKLISVPRSHAKHPTDTYPHASEVTIKKAINRFLPRFNDKELFNRAMCWCTDTADANLLVCEHPRWKGFYLATGDSGHSFKLLPNIGKHVVELLEGRLESVFKDAWRWRPGSGDALKSRRAAPAKDLADMPGWRNEAKM
Activity ratio (glycated hexapeptide oxidase activity, FPOX-15 defined as 1): 18

B3: FPOX-15 mutant, position 61 Asn (protein)
chain: B2 chain with P61N
Activity ratio (glycated hexapeptide oxidase activity, FPOX-15 defined as 1): 41.1

B4: FPOX-15 mutant, position 61 Glu (protein)
chain: B2 chain with P61E
Activity ratio (glycated hexapeptide oxidase activity, FPOX-15 defined as 1): 0

B5: FPOX-15 mutant, position 61 Gln (protein)
chain: B2 chain with P61Q
Activity ratio (glycated hexapeptide oxidase activity, FPOX-15 defined as 1): 16.2

B6: FPOX-15 mutant, position 61 Asp (protein)
chain: B2 chain with P61D
Activity ratio (glycated hexapeptide oxidase activity, FPOX-15 defined as 1): 46.5

B7: FPOX-16 (protein)
chain: B2 chain with P61G
Activity ratio (glycated hexapeptide oxidase activity, FPOX-15 defined as 1): 63.9
Activity ratio with respect to FPOX-15 (FPOX-15 defined as 1): 63.9
Activity ratio with respect to FPOX-16 (FPOX-16 defined as 1): 1

B8: FPOX-16 with additional mutation R63P (protein)
chain: B2 chain with P61G, R63P
Activity ratio with respect to FPOX-15 (FPOX-15 defined as 1): 143
Activity ratio with respect to FPOX-16 (FPOX-16 defined as 1): 2.2

B9: FPOX-16 with additional mutation R63G (protein)
chain: B2 chain with P61G, R63G
Activity ratio with respect to FPOX-15 (FPOX-15 defined as 1): 128
Activity ratio with respect to FPOX-16 (FPOX-16 defined as 1): 2

B10: FPOX-45 (protein)
chain: MAPRANTKIIVVGGGGTMGSSTALHLLRAGYTPSNITVLDTYPIPSAQSAGYDLNKVFGISGANKHDLQLSLEAFDMWKNDPLFKPFFHNVGQMDVSSTEEGIKRLRRRYQSLLRAGIGLEKTNFLLESEDEILAKAPHFTREQIKGWKGLFCGDGGWLAAAKAINAIGQFLKEQGVKFGFGEAGTFKKPLFADADEKTCIGVETVDGTKYYADKVVLAAGAWSSTLVDLEEQCVSKAWVFAHIQLTPAEAAAYKNTPVIYDGDYGFFIEPDENGIIKVCDEFPGFTHFKMHQPYGSPVPKLISVPRSHAKHPTDTYPHASEVTIKKAINRFLPRFNDKELFNRAMCWCTDTADSNLLVCEHPRWKGFYLATGDSGHSFKLLPNIGKHVVELLEGRLESVFKDAWRWRPGSGDALKSRRAAPAKDLADMPGWRNEAKM
Activity ratio with respect to FPOX-15 (FPOX-15 defined as 1): 24800
Activity ratio with respect to FPOX-19 (FPOX-19 defined as 1): 4.6

B11: FPOX-31 (protein)
chain: B10 chain with V57I, D95E, R108K, S355A
Activity ratio with respect to FPOX-15 (FPOX-15 defined as 1): 14100
Activity ratio with respect to FPOX-19 (FPOX-19 defined as 1): 2.6

B12: FPOX-37 (protein)
chain: B10 chain with V57I, S355A
Activity ratio with respect to FPOX-15 (FPOX-15 defined as 1): 10600
Activity ratio with respect to FPOX-19 (FPOX-19 defined as 1): 2

B13: FPOX-16 with additional mutation R63A (protein)
chain: B2 chain with P61G, R63A
Activity ratio with respect to FPOX-15 (FPOX-15 defined as 1): 171
Activity ratio with respect to FPOX-16 (FPOX-16 defined as 1): 2.7

B14: FPOX-24 (protein)
chain: B10 chain with H66P, R105K, R108K, S355A
Activity ratio with respect to FPOX-15 (FPOX-15 defined as 1): 9190
Activity ratio with respect to FPOX-19 (FPOX-19 defined as 1): 1.7

B15: FPOX-19 (protein)
chain: B2 chain with P61S, L62G, R63A, Y71S, M108K, D115R
Activity ratio with respect to FPOX-15 (FPOX-15 defined as 1): 5440
Activity ratio with respect to FPOX-18 (FPOX-18 defined as 1): 28.6
Activity ratio with respect to FPOX-19 (FPOX-19 defined as 1): 1
Specific activity (mU/mg): 19.6 mU/mg

B16: FPOX-25 (protein)
chain: B10 chain with V57I, R105K, R108K, S355A
Activity ratio with respect to FPOX-15 (FPOX-15 defined as 1): 12700
Activity ratio with respect to FPOX-19 (FPOX-19 defined as 1): 2.3

B17: FPOX-18 (protein)
chain: B2 chain with P61S, L62G, R63A
Activity ratio with respect to FPOX-15 (FPOX-15 defined as 1): 190
Activity ratio with respect to FPOX-18 (FPOX-18 defined as 1): 1

B18: FPOX-18 with additional mutation F267Y (protein)
chain: B2 chain with P61S, L62G, R63A, F267Y
Activity ratio with respect to FPOX-15 (FPOX-15 defined as 1): 282
Activity ratio with respect to FPOX-18 (FPOX-18 defined as 1): 1.5

B19: FPOX-22 (protein)
chain: B10 chain with S34T, V57I, H66P, R105K, R108K, S355A
Activity ratio with respect to FPOX-15 (FPOX-15 defined as 1): 8490
Activity ratio with respect to FPOX-19 (FPOX-19 defined as 1): 1.6

B20: FPOX-33 (protein)
chain: B10 chain with S34T, V57I, D95E, S355A
Activity ratio with respect to FPOX-15 (FPOX-15 defined as 1): 17000
Activity ratio with respect to FPOX-19 (FPOX-19 defined as 1): 3.1

B21: FPOX-17 with additional mutation R63A (protein)
chain: B2 chain with P61S, R63A
Activity ratio with respect to FPOX-15 (FPOX-15 defined as 1): 178
Activity ratio with respect to FPOX-17 (FPOX-17 defined as 1): 2.6

B22: FPOX-38 (protein)
chain: B10 chain with V57I, R105K, R108K
Activity ratio with respect to FPOX-15 (FPOX-15 defined as 1): 22600
Activity ratio with respect to FPOX-19 (FPOX-19 defined as 1): 4.2

B23: FPOX-34 (protein)
chain: B10 chain with Y52H, V57I, D95E, S355A
Activity ratio with respect to FPOX-15 (FPOX-15 defined as 1): 15600
Activity ratio with respect to FPOX-19 (FPOX-19 defined as 1): 2.9

B24: FPOX-23 (protein)
chain: B10 chain with Y52H, V57I, H66P, R105K, R108K, S355A
Activity ratio with respect to FPOX-15 (FPOX-15 defined as 1): 8490
Activity ratio with respect to FPOX-19 (FPOX-19 defined as 1): 1.6

B25: FPOX-18D (protein)
chain: B2 chain with P61S, L62G, R63A, Y71S, D115R
Activity ratio with respect to FPOX-15 (FPOX-15 defined as 1): 3610
Activity ratio with respect to FPOX-18 (FPOX-18 defined as 1): 19

B26: FPOX-29 (protein)
chain: B10 chain with V57I, H66P, R105K, R108K
Activity ratio with respect to FPOX-15 (FPOX-15 defined as 1): 17700
Activity ratio with respect to FPOX-19 (FPOX-19 defined as 1): 3.3

B27: FPOX-18 with additional mutation Q93E (protein)
chain: B2 chain with P61S, L62G, R63A, Q93E
Activity ratio with respect to FPOX-15 (FPOX-15 defined as 1): 257
Activity ratio with respect to FPOX-18 (FPOX-18 defined as 1): 1.3

B28: FPOX-28 (protein)
chain: B10 chain with V57I, H66P, R105K, S355A
Activity ratio with respect to FPOX-15 (FPOX-15 defined as 1): 9900
Activity ratio with respect to FPOX-19 (FPOX-19 defined as 1): 1.8

B29: FPOX-46 (protein)
chain: B10 chain with V57I, D95E
Activity ratio with respect to FPOX-15 (FPOX-15 defined as 1): 12700
Activity ratio with respect to FPOX-19 (FPOX-19 defined as 1): 2.3

B30: FPOX-17 (protein)
chain: B2 chain with P61S
Activity ratio (glycated hexapeptide oxidase activity, FPOX-15 defined as 1): 67.7
Activity ratio with respect to FPOX-15 (FPOX-15 defined as 1): 67.7
Activity ratio with respect to FPOX-17 (FPOX-17 defined as 1): 1

B31: FPOX-18C (protein)
chain: B2 chain with P61S, L62G, R63A, Y71S, D115N
Activity ratio with respect to FPOX-15 (FPOX-15 defined as 1): 2920
Activity ratio with respect to FPOX-18 (FPOX-18 defined as 1): 15.3

B32: FPOX-36 (protein)
chain: B10 chain with V57I, R105K, S355A
Activity ratio with respect to FPOX-15 (FPOX-15 defined as 1): 19100
Activity ratio with respect to FPOX-19 (FPOX-19 defined as 1): 3.5

B33: FPOX-26 (protein)
chain: B10 chain with V57I, H66P, D95E, R105K, R108K, S355A
Activity ratio with respect to FPOX-15 (FPOX-15 defined as 1): 9900
Activity ratio with respect to FPOX-19 (FPOX-19 defined as 1): 1.8

B34: FPOX-21 (protein)
chain: B10 chain with V57I, H66P, R105K, R108K, S355A
Activity ratio with respect to FPOX-15 (FPOX-15 defined as 1): 7000

B35: FPOX-27 (protein)
chain: B10 chain with V57I, H66P, R108K, S355A
Activity ratio with respect to FPOX-15 (FPOX-15 defined as 1): 10600
Activity ratio with respect to FPOX-19 (FPOX-19 defined as 1): 2

B36: FPOX-35 (protein)
chain: B10 chain with D95E, S355A
Activity ratio with respect to FPOX-15 (FPOX-15 defined as 1): 12000
Activity ratio with respect to FPOX-19 (FPOX-19 defined as 1): 2.2

B37: FPOX-30 (protein)
chain: B10 chain with V57I, D95E, R105K, R108K, S355A
Activity ratio with respect to FPOX-15 (FPOX-15 defined as 1): 12700
Activity ratio with respect to FPOX-19 (FPOX-19 defined as 1): 2.3
